Measurements from ChEMBL document CHEMBL4002583, “Amino derivatives of platanic acid act as selective and potent inhibitors of butyrylcholinesterase” (Eur J Med Chem, 2017).

Assay: Selectivity ratio of Ki for equine serum BChE to Ki for electric eel AChE

Q: Which Ratio Ki does the source give for CC(=O)O[C@H]1CC[C@]2(C)[C@H]3CC[C@@H]4[C@H]5[C@H](/C(C)=N/O)CC[C@]5(C(=O)O)CC[C@@]4(C)[C@]3(C)CC[C@H]2C1(C)C here?
A: > 2.4

Q: With COC(=O)[C@]12CC[C@@H](/C(C)=N/O)[C@@H]1[C@H]1CC[C@@H]3[C@@]4(C)CC[C@H](OC(C)=O)C(C)(C)[C@@H]4CC[C@@]3(C)[C@]1(C)CC2 as the molecule, how does the Ratio Ki read?
A: > 1.4

Q: For COC(=O)[C@]12CC[C@@H](/C(C)=N\O)[C@@H]1[C@H]1CC[C@@H]3[C@@]4(C)CC[C@H](OC(C)=O)C(C)(C)[C@@H]4CC[C@@]3(C)[C@]1(C)CC2, which Ratio Ki is on record?
A: > 6
